This passage reports DC50 and Dmax results from patent US20230322761A1, “DEGRADATION OF BRUTON'S TYROSINE KINASE (BTK) BY CONJUGATION OF BTK INHIBITORS WITH E3 LIGASE LIGAND AND METHODS OF USE” (BEIGENE, LTD., priority 2020, published 2023).

The chains behind the UniProt entries cited, without tags or fusion partners.
UniProt Q06187, whole entry: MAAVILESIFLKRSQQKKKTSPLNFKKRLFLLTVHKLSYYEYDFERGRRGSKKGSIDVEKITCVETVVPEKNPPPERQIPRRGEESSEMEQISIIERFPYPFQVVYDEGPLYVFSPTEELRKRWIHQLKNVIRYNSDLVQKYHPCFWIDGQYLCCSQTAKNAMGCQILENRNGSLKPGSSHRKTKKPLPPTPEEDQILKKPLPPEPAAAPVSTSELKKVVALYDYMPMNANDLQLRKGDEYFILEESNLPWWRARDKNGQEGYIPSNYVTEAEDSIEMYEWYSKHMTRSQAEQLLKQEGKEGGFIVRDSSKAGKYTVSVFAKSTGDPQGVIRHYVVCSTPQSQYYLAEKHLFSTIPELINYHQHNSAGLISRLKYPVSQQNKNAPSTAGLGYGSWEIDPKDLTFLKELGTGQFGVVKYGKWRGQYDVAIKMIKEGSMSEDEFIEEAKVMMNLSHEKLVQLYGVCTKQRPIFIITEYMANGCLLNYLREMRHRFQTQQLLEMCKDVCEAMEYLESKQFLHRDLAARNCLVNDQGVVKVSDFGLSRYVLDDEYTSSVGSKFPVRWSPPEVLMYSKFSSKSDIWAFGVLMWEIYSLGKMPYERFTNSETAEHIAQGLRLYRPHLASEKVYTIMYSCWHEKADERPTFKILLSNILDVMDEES

The test concerns the target BTK (Homo sapiens, UniProt Q06187). The experiment in a line: BTK degradation in TMD-8 cells, HTRF assay after 6 h treatment. The conditions noted are these: for DC50: IC50 (DC50) of BTK degradation. Here is the method:
TMD-8 cells are treated with compounds diluted in 0.2% DMSO, dilution is done according to the following protocol: (1) make 500× stock solution in DMSO from 1 mM by 6-fold dilution, total 8 doses were included; (2) make 2× solution in cell culture medium by transferring 0.5 μl 500× stock solution into 125 μl medium; (3) 15 μl of 2× solution is added to cells and incubate for 6 h.
After 6 h treatment, add 10 μl 4×lysis buffer to each well; seal the plate and incubate 30 min at room temperature on a plate shaker; Once the cells are lysed, 16 μL of cell lysate are transferred to a PE 384-well HTRF detection plate; 4 μL of pre-mixed HTRF antibodies are added to each well; Cover the plate with a plate sealer, spin 1000 rpm for 1 min, Incubate overnight at room temperature; Read on BMG PheraStar with HTRF protocol (337 nm-665 nm-620 nm).
The IC50 (DC50) value of a compound can be obtained by fitting the following equation
Y=Bottom+(TOP−Bottom)/(1+((IC50/X)^hillslope))
Wherein, X and Y are known values, and IC50, Hillslope, Top and Bottom are the parameters obtained by fitting with software. Y is the inhibition percentage (calculated from the equation), X is the concentration of the compound; IC50 is the concentration of the compound when the 50% inhibition is reached. The smaller the IC50 value is, the stronger the inhibitory ability of the compound is. Vice versa, the higher the IC50 value is, the weaker the ability the inhibitory ability of the compound is; Hillslope represents the slope of the fitted curve, generally around 1*; Bottom represents the minimum value of the curve obtained by data fitting, which is generally 0%±20%; Top represents the maximum value of the curve obtained by data fitting, which is generally 100%±20%. The experimental data were fitted by calculating and analyzing with Dotmatics data analysis software.
(TR-FRET usually uses a lanthanide donor and a delayed reading to cut background.)

Usually DC50 stands for the midpoint of the concentration-degradation curve. A higher DC50 goes with degradation only at high concentration. In general, Dmax refers to the greatest extent of degradation seen.

Consider `Cc1cc(-c2n[nH]c3ncc(-c4ccc(N5CC6CN(CC7CCN(c8ccc(N9CCC(=O)NC9=O)cc8)CC7)CC6C5)cn4)cc23)ccc1[C@@H](C)NC(=O)c1noc(C(C)(C)C)n1` (stereo partly shown), for which the DC50 is 2.07 nM.

`Cc1cc(-c2n[nH]c3ncc(-c4ccc(N5CCN(CCc6ccc(C7CC(=O)NC7=O)cc6)CC5)cc4)cc23)ccc1[C@@H](C)NC(=O)c1nc(C(C)(C)C)no1` (stereo partly shown) gave a DC50 above 2000 nM.

Molecule `Cc1cc(-c2n[nH]c3ncc(-c4ccc(C5CCN(CCCOc6ccc(NC7CCC(=O)NC7=O)cc6)CC5)cc4)cc23)ccc1CNC(=O)c1nc(C(C)(C)C)no1` (stereo not shown) came in with a DC50 of 1.81 nM. The Dmax (maximum percentage of inhibition (degradation)) is reported as 98.17%.
